Common to all, as to format: cell-based
One experiment concerns EGFR. The experiment is described as follows: EGFR tyrosine phosphorylation. The note with it: increase caused by PACAP; 30 min pretreatment.
The subject of a further experiment is HER2. Description: HER2 tyrosine phosphorylation. The note with it: increase caused by PACAP; 30 min pretreatment.
The subject of a further experiment is NSCLC cells. Description: Proliferation of NSCLC cells.
The test system of the next experiment is Calu-3 cells. The experiment is described as follows: Clonogenic assay, Calu-3 cells.

On to `COc1cc2ncnc(Nc3ccc(F)c(Cl)c3)c2cc1OCCCN1CCOCC1` [gefitinib], for which the “effect on PACAP-induced EGFR tyrosine phosphorylation” value with EGFR is reported as “blocked”.
As to “trastuzumab: a monoclonal antibody (mAb) for HER2”, the “effect on PACAP-induced HER2 tyrosine phosphorylation” value with HER2 was “inhibited”. The “proliferation of NSCLC cells” value in the experiment on NSCLC cells is recorded as “inhibited proliferation”. In the experiment with Calu-3 cells (100 nM PACAP-27), the “effect on PACAP-27-induced increase in colony number” value is reported as “impaired”. The “reduction of colony number” value in the experiment with Calu-3 cells (basal colony number, no PACAP, mAb3481 0.1 μg/ml, PACAP(6–38) 5 μM, gefitinib 1 μM, trastuzumab 0.1 μg/ml, 2 weeks) is recorded as 27%. Moreover, the “inhibition of Calu-3 proliferation, clonogenic” value in the experiment on Calu-3 cells (clonogenic assay, basal or stimulated growth) is given as “inhibited growth”.

The values are drawn from paper PMC8844836 (Journal of molecular neuroscience : MN, 2020).
